These results are taken from publication PMC5772648, “Targeted NUDT5 inhibitors block hormone signaling in breast cancer cells” (Nature Communications, 2018).

One data set in a line: solubility. The format is physicochemical.
The target of the next data set is human NUDT5 (Homo sapiens, UniProt Q9UKK9). Briefly: enzyme-coupled malachite green assay (MG assay), ADPR hydrolysis. The format is biochemical. To be noted: NUDT5, ADPR substrate. The source says: We next sought to develop small molecule NUDT5 inhibitors to further probe the role of NUDT5 in ADPR metabolism. A high-throughput, screening-compatible NUDT5 inhibition assay was established using slight modifications to the aforementioned MG procedure (Fig. 2a)[15],[27]. Briefly, ADPR, NUDT5 and calf intestinal alkaline phosphatase (CIP) were combined in a coupled enzymatic assay, as described in the online methods. In turn, ADPR was hydrolyzed to AMP and R5P by NUDT5, and the released R5P was further degraded to ribose and inorganic phosphate (Pi) by CIP. Free Pi was subsequently detected using the malachite green reagent. […]
Activity of NUDT5 and MTH1 with a panel of potential substrates [2-OH-ATP, 2-OH-dATP, 8-oxo-dGDP, GDP and 8-oxo-GTP (Jena Biosciences), 8-oxo-dGTP (TriLink Biotechnologies), dATP (ThermoFisher Scientific), dGTP, GTP and ADPR (Sigma-Aldrich)] was assessed in reaction buffer (100 mM Tris Acetate pH 7.5, 40 mM NaCl, 10 mM Mg Acetate) at 22 °C. […] After 30 min incubation with shaking, formed inorganic phosphate was detected by addition of malachite green reagent. Absorbance at 630 nm was read after 15 min incubation with shaking using a Hidex Sense plate reader. The potency of NUDT5 inhibitors was assessed similarly as above (and in the screening campaign) by monitoring ADPR hydrolysis; details are in the Supplementary Information. […]

The subject of another data set is HL-60 or U-2 OS cells. Briefly: cell viability by resazurin. As to conditions: 72 h, Supplementary Fig. 7. Here is the method: Cell viability was assessed by resazurin[9]. 5000 HL-60 cells (or 1000 U-2 OS/2000 T47D cells) were seeded per well on a 96-well plate. The following morning, compounds (or the equivalent amount of DMSO) were added to obtain the final concentrations indicated and the cells were incubated at 37 °C for 72 h with resazurin added at 0.02 mg/mL for the last 2–6 h. Resorufin fluorescence was detected at […] with a Hidex Sense fluorescent plate reader. Viability curves were fit using the sigmoidal dose-response (variable slope) function in GraphPad Prism 7.

The target in data set [1] is NUDT5 in intact HL-60 cells (Homo sapiens, UniProt Q9UKK9). Briefly: intact cell CETSA. As to conditions: 20 µM, 83 °C.
Data set [2] addresses NUDT5 in HL-60 cell lysates (Homo sapiens, UniProt Q9UKK9). The experiment in a line: cell lysate CETSA (HT-CETSA). As to conditions: 20 µM, 83 °C.

Where two headings read alike, the source gives them in different places.

Regarding `CC(C)c1nc2c(c(=O)n(C)c(=O)n2C)n1Cc1nnc(-c2ccc(Cl)c(Cl)c2)o1`, the “solubility” value in “solubility” is reported as “major solubility issues”.

As to `CCN(CC)c1nc2c(c(=O)n(C)c(=O)n2C)n1Cc1nnc(-c2ccc(Cl)c(Cl)c2)o1`, the IC50 on human NUDT5 (read-out: MG assay IC50) turned out to be 110 nM. Also, the “solubility” value in the data set “solubility” was “very poor solubility”.

`Cn1c(=O)c2c(nc(Br)n2Cc2nnc(-c3ccc(Cl)c(Cl)c3)o2)n(C)c1=O`: in the data set with HL-60 or U-2 OS cells, the “toxicity” value is “distinctly toxic under tested conditions”. Also, the “NUDT5 stabilization in intact cells” value in data set [1] is recorded as “showed a smaller degree of stabilization”. Also, the IC50 on human NUDT5 (read-out: MG assay IC50 (Biochemical IC50)) turned out to be 20 nM. Also, the “NUDT5 stabilization in cell lysates” value in data set [2] is given as “unable to stabilize NUDT5 above the 50 % cutoff”.

Usually IC50 stands for the concentration that gives 50% inhibition.
